PubChem BioAssay AID411 (National Center for Advancing Translational Sciences (NCATS), 2006)
Several values for one entry are separate records, joined by “and”; a condition that tells them apart may be missing. Equal values may be shown once. This is a selection; strong and weak results do not stand in their true shares. Activity calls are given as the source filed them. Calls follow the shape of the dose curve; as a rule, active = well fitted inhibition curve with a large enough effect; inconclusive = small, poorly fitted or top-dose-only effect; inactive = flat fitted curve, though single readings scatter.
% is scaled to controls: 0 for no effect and ±100 for the full control effect.
Also: nearly all actives have a fitted effect of over 40% in size.

The chains behind the UniProt entries cited, without tags or fusion partners.
UniProt P08659, whole entry, looked up: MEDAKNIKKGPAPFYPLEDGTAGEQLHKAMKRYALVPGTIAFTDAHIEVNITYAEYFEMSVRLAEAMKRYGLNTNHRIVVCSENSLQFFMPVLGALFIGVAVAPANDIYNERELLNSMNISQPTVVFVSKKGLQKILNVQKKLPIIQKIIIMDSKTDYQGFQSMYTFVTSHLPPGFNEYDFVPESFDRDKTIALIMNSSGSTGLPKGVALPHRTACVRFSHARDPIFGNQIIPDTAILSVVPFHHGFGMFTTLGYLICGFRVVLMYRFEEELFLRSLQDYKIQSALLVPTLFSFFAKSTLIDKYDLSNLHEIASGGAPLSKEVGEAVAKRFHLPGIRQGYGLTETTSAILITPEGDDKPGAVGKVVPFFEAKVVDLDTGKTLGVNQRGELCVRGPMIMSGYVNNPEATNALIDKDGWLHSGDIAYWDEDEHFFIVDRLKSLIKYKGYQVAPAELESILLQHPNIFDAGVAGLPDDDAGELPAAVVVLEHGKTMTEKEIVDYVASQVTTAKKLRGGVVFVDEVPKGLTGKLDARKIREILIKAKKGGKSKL

These compounds were tested against Luciferin 4-monooxygenase (Photinus pyralis) (UniProt P08659) (assay: qHTS Assay for Inhibitors of Firefly Luciferase). Conditions: purified firefly luciferase, luminescence, 8 min; at 57.1 µM (top of the series) unless noted.
Method: To aid in the interpretation of high-throughput screening (HTS) results derived from luciferase-based assays, we used quantitative HTS, an approach that defines the concentration-response behavior of each library sample, to profile the ATP-dependent luciferase from Photinus pyralis against more than 72 000 samples. Luciferase (PKLight, Cambrex Corporation) was assayed for its ability to generate light using ATP and luciferin as substrates. The ATP concentration in the assay (10 uM) was within the linear range of enzyme activity for the assay conditions used. See following reference for further details: [1] Auld DS, Southall NT, Jadhav A, Johnson RL, Diller DJ, Simeonov A, Austin CP, Inglese J. Characterization of chemical libraries for luciferase inhibitory activity. J Med Chem. 2008 Apr 24;51(8):2372-86. Auld DS, Zhang YQ, Southall NT, Rai G, Landsman M, Maclure J, Langevin D, Thomas CJ, Austin CP, Inglese J. A Basis for Reduced Chemical Library Inhibition of Firefly Luciferase Obtained from Directed Evolution. J. Med. Chem., 2009, 52 (5), pp 1450#1458 [3] Auld DS, Thorne N, Nguyen DT, Inglese J. A specific mechanism for nonspecific activation in reporter-gene assays. ACS Chem Biol. 2008 Aug 15;3(8):463-70. Auld DS, Thorne N, Maguire WF, Inglese J. Mechanism of PTC124 activity in cell-based luciferase assays of nonsense codon suppression. Proc Natl Acad Sci U S A. 2009 Mar 3;106(9):3585-90. Inglese J, Auld DS, Jadhav A, Johnson RL, Simeonov A, Yasgar A, Zheng W, Austin CP. Quantitative high-throughput screening: a titration-based approach that efficiently identifies biological activities in large chemical libraries. Proc Natl Acad Sci U S A. 2006 Aug 1;103(31):11473-8.
Four uL of substrate mix (final concentration, 50 mM imidazole pH 7.2, 50 mM KCl, 7 mM MgCl2, 10 uM ATP, 0.01% Tween 20, 0.05% BSA) was dispensed into white 1536 well plates. Twenty-three nL of compound was delivered by a pin tool and 2 uL of luciferase detector mix (PKLight, Cambrex) was added. Following 8-minute incubation at ambient temperature, luminescence was measured by a ViewLux (Perkin Elmer) at 5 seconds exposure/plate.
NC(=O)Nc1ccc([As](=O)(O)O)cc1 was tested, and the activity change, negative = inhibition was inactive: -1.65% [at 25.5 µM].
CCOP1(=S)c2c(C)nn(CCC#N)c2N=C(c2ccc(F)cc2)N1C (stereo unspecified) was tested, and the activity change, negative = inhibition was inactive: 1.9%.
In the case of CCOP1(=S)c2c(C)nn(CCC#N)c2N=C(c2ccccc2F)N1C (stereo unspecified), the activity change, negative = inhibition is reported as inactive: 6.99%.
In the case of O=P(Nc1nccs1)(c1ccccc1)c1nc2ccccc2s1 (stereo unspecified), the activity change, negative = inhibition is reported as inactive: -16.4%.
O=[As](O)(O)c1ccc([As](=O)(O)O)cc1 was tested, and the activity change, negative = inhibition was inactive: 0.548% [at 11.4 µM].
With NS(=O)(=O)Cc1ccc([As](=O)(O)O)cc1 the activity change, negative = inhibition was inactive: 1.56% [at 11.4 µM].
O=C(CC(=O)c1ccccc1)O[C@H]1CN2CCC1CC2 was tested, and the activity change, negative = inhibition was inactive: 2.26% [at 11.4 µM].
In the case of CN(C(=O)Cc1ccc(Cl)c(Cl)c1)[C@@H]1CC[C@@]2(CCCO2)C[C@H]1N1CCCC1, the activity change, negative = inhibition is reported as inactive: 3.62%.
In the case of Cc1cccc(OCC(=O)OC2CN3CCC2CC3)c1 (stereo unspecified), the activity change, negative = inhibition is reported as inactive: -2.03% [at 25.5 µM].
For CN(C(=O)Cc1ccc(Cl)c(Cl)c1)[C@@H]1CCCC[C@H]1N1CCCC1, the activity change, negative = inhibition was inactive: 0.882% [middle of 4 runs].
In the case of O=P1(Nc2ccccn2)COc2ccccc2OC1, the activity change, negative = inhibition is reported as inactive: 1.66%.
CN(CCCl)Cc1cc(Cl)c(NC2=NCCN2)c(Cl)c1 was tested, and the activity change, negative = inhibition was inactive: -0.601%.
With Clc1n[nH]nc1-c1nn[nH][15n]1 the activity change, negative = inhibition was inactive: 0.216%.
For O=P1(Nc2ncccn2)COc2ccccc2OC1, the activity change, negative = inhibition was inactive: 1.09%.
In the case of Cc1ccc(OCC(=O)OC2CN3CCC2CC3)cc1 (stereo unspecified), the activity change, negative = inhibition is reported as inactive: 1.53% [at 25.5 µM].
In the case of O=P1(Nc2ccc(Br)cn2)COc2ccccc2OC1, the activity change, negative = inhibition is reported as inactive: 1.31%.
In the case of Cc1nn(-c2ccccc2)c2c1P(=O)(N1CCOCC1)N(C)C(c1ccccc1)=N2 (stereo unspecified), the activity change, negative = inhibition is reported as inactive: 1.54%.
With COP1(=S)c2c(C)nn(CCC#N)c2N=C(c2ccc(F)cc2)N1C (stereo unspecified) the activity change, negative = inhibition was inactive: -33.7%.
For O=C(COc1ccccc1)OC1CN2CCC1CC2 (stereo unspecified), the activity change, negative = inhibition was inactive: 0.139%.
For O=C(O)[C@@H](O)c1ccc([As](=O)(O)O)cc1, the activity change, negative = inhibition was inactive: 2.15% [at 11.4 µM].
O=C(OC1CN2CCC1CC2)C12CC3CC(CC(C3)C1)C2 (stereo unspecified) was tested, and the activity change, negative = inhibition was inactive: 0.182%.
In the case of NC(=O)Nc1cc([As](=O)(O)O)cc(I)c1O, the activity change, negative = inhibition is reported as inactive: 2.52% [at 11.4 µM].
O=[As]c1ccc(S(=O)(=O)NCCO)cc1 (stereo unspecified) was tested, and the activity change, negative = inhibition was inactive: -13.2% [at 11.4 µM].
With [N-]=[N+]=NCC(N)=O the activity change, negative = inhibition was inactive: 4.54% [at 11.4 µM].
[N-]=[N+]=NCC(O)CN=[N+]=[N-] (stereo unspecified) was tested, and the activity change, negative = inhibition was inactive: 2.22% [at 11.4 µM].
C(Cc1nn[nH]n1)c1nn[nH]n1 was tested, and the activity change, negative = inhibition was inactive: -0.115% [at 11.4 µM].
CN(C(=O)Cc1ccc(Cl)c(Cl)c1)[C@H]1CCCC[C@@H]1N1CCCC1 was tested, and the activity change, negative = inhibition was inactive: 3.49% and inactive: -2.05% and inactive: -0.451%.
In the case of Cc1c2non([O-])c-2c(C)[n+](=O)[n+]1[O-], the activity change, negative = inhibition is reported as inactive: -9.14%.
In the case of NCC[C@@H](N)CSP(=O)(O)O, the activity change, negative = inhibition is reported as inactive: 2.11% [at 11.4 µM].
O=[N+]([O-])c1ccc(C[As](=O)(O)O)cc1 was tested, and the activity change, negative = inhibition was inactive: 1.4% [at 11.4 µM].
In the case of O=C(CO)Nc1ccc([As](=O)(O)O)cc1, the activity change, negative = inhibition is reported as inactive: 1.32% [at 11.4 µM].
CCc1nc2c(n1)c1c(non1O)c1c2no[n+]1[O-] was tested, and the activity change, negative = inhibition was inactive: -3.06%.
In the case of CN(C(=O)Cc1ccccc1)[C@@H]1CC[C@@]2(CCCO2)C[C@H]1N1CCCC1, the activity change, negative = inhibition is reported as inactive: -0.257%.
O=C(OC1CN2CCC1CC2)c1cccc(Cl)c1 (stereo unspecified) was tested, and the activity change, negative = inhibition was inactive: 2.7%.
In the case of [N-]=[N+]=Nc1ccc([As](=O)(O)O)cc1, the activity change, negative = inhibition is reported as inactive: -1.4% [at 11.4 µM].
CN1CCC[C@H](OC(=O)C(c2ccccc2)c2ccccc2)C1 was tested, and the activity change, negative = inhibition was inactive: -1.53% [at 11.4 µM].
For C[C@@H](O)COc1ccc([As](=O)(O)O)cc1N, the activity change, negative = inhibition was inactive: -0.238% [at 11.4 µM].
With O=P(Nc1nccs1)(c1ccccc1)c1ccccc1 the activity change, negative = inhibition was inactive: 6.03%.
In the case of c1nnnn1CCn1cnnn1, the activity change, negative = inhibition is reported as inactive: 2.13%.
With O=P1(Nc2nc3ccc(Cl)cc3s2)COc2ccccc2O1 (stereo unspecified) the activity change, negative = inhibition was inactive: -8.91%.
With COC(=O)c1cc2c(s1)N=C(c1ccccc1)N(C)P2(=O)N1CCOCC1 (stereo unspecified) the activity change, negative = inhibition was inactive: 0.0889%.
